Results from patent US20250361280A1 (Protagonist Therapeutics, Inc., priority 2022, published 2025).

Legend:
ferroportin [1] = molecular target: T1, ferroportin (Homo sapiens, UniProt Q9NP59); assay: FPN internalization assay (FPN activity assay), loss of ferroportin-GFP fluorescence; type: cell-based
T1 sequence (Q9NP59 1-571): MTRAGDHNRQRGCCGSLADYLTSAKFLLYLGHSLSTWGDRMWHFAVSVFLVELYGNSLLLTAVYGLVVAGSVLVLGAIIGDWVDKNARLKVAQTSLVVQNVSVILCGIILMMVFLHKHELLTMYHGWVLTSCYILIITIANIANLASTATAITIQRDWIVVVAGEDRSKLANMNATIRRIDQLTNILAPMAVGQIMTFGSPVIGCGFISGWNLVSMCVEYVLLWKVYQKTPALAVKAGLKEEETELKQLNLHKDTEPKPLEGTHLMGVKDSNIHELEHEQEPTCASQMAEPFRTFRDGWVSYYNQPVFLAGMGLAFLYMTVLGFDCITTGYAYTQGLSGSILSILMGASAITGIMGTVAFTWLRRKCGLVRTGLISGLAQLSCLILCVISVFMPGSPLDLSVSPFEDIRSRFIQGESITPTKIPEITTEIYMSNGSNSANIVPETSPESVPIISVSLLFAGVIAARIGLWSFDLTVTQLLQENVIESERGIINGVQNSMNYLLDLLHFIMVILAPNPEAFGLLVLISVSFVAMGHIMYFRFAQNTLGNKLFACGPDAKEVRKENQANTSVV

ferroportin [2] = molecular target: T1, ferroportin; assay: T47D internalization assay in presence of mouse serum albumin; type: cell-based; set-up: a human breast carcinoma adherent cell line which endogenously expresses ferroportin; host or cells: T47D; conditions: T47D cells, 0.5% mouse serum albumin, 1 hr incubation
Method in brief: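 T47D cells exposed 1 h to 10-point peptide dilutions (top ~5 μM) preincubated 30 min with 0.5% mouse serum albumin. Then 200 nM AF647-labelled ferroportin-binding detection peptide for 2 h. Flow cytometry MFI of live singlets, IC50 by 4-parameter fit.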

[3] = Table 1D, HEK293 cells stably expressing ferroportin-GFP, compound at least 18 hours, read-out: IC50: FPN
[4] = Table 1D, read-out: IC50: T47D MSA
[5] = Table 1C, HEK293 cells stably expressing ferroportin-GFP, compound at least 18 hours, read-out: IC50: FPN
[6] = Table 1C, read-out: IC50: T47D MSA

| IC50 (ferroportin [1]; [3]) [nM] | IC50 (ferroportin [2]; [4]) [nM] | SMILES | also measured |
| --- | --- | --- | --- |
| 1 to 30 | 10 to 100 | CCCCCCCCCCCCCCCC(=O)N[C@@H](CCCC[N+](C)(C)C)C(=O)NCCCC[C@H](NC(=O)[C@@H]1CCCN1C(=O)[C@@H](NC(=O)[C@H](Cc1c[nH]cn1)NC(=O)[C@@H](NC(=O)[C@H](CCC(=O)O)NC(=O)CC(C)C)[C@@H](C)O)C(c1ccccc1)c1ccccc1)C(=O)NCCCCc1ccccc1 [compound 200] | – |
| 1 to 30 | 0.1 to 10 | CCCCCCCCCCCCCCCC(=O)NCC[N+](C)(C)CC(=O)NCCOCCOCCOCCOCCC(=O)NCCCC[C@H](NC(=O)[C@@H]1CCCN1C(=O)[C@@H](NC(=O)[C@H](Cc1c[nH]cn1)NC(=O)[C@@H](NC(=O)[C@H](CCC(=O)O)NC(=O)CC(C)C)[C@@H](C)O)C(c1ccccc1)c1ccccc1)C(=O)NCCCCCc1ccccc1 [compound 116] | – |
| 1 to 30 | 10 to 100 | CCCCCCCC(=O)N[C@@H](CCC(=O)NCCOCCOCC(=O)NCCOCCOCC(=O)NCCCC[C@H](NC(=O)[C@@H]1CCCN1C(=O)[C@@H](NC(=O)[C@H](Cc1c[nH]cn1)NC(=O)[C@@H](NC(=O)[C@H](CCC(=O)O)NC(=O)CC(C)C)[C@@H](C)O)C(c1ccccc1)c1ccccc1)C(=O)NCCCCCc1ccccc1)C(=O)O [compound 90] | – |
| 1 to 30 | 100 to 500 | CCCCCCCCCCCCCCCC(=O)NCC[N+](C)(C)CC(=O)NCCOCCOCC(=O)NCCOCCOCC(=O)NCCCC[C@H](NC(=O)[C@@H]1CCCN1C(=O)[C@@H](NC(=O)[C@H](Cc1c[nH]cn1)NC(=O)[C@@H](NC(=O)[C@H](CCC(=O)OC)NC(=O)CC(C)C)[C@@H](C)O)C(c1ccccc1)c1ccccc1)C(=O)NCCCCc1ccccc1 [compound 206] | – |
| 100 to 500 | 10 to 100 | CCCCCCCCCCCCCCCC(=O)NCC[N+](C)(C)CC(=O)NCCOCCOCC(=O)NCCOCCOCC(=O)NCCCC[C@H](NC(=O)[C@@H]1CCSSC[C@H](NC(=O)[C@H](CCC(=O)O)NC(=O)CC(C)C)C(=O)N[C@@H](Cc2c[nH]cn2)C(=O)N[C@@H](C(c2ccccc2)c2ccccc2)C(=O)N1)C(=O)NCCCCc1ccccc1 [compound 213] | – |
| – | – | CCCCCCCCCCCCCCCC(=O)NCC[N+](C)(C)CC(=O)NCCOCCOCC(=O)NCCOCCOCC(=O)NCCCC[C@H](NC(=O)[C@@H]1CCCN1C(=O)[C@@H](NC(=O)[C@H](Cc1c[nH]cn1)NC(=O)[C@@H](NC(=O)[C@H](CCC(=O)O)NC(=O)CC(C)C)[C@@H](C)O)C(c1ccccc1)c1ccccc1)C(=O)NCCc1ccccn1 [compound 73] | IC50 (ferroportin [1]): 1 to 30 nM; IC50 (ferroportin [2]; IC50: T47D MSA (nM, Table 1D)): 0.1 to 10 nM |
| > 500 | > 500 | COC(=O)CCC(CCCC(C)C)C(=O)N[C@H](C(=O)N[C@@H](Cc1c[nH]cn1)C(=O)N[C@H](C(=O)N1CCC[C@H]1C(=O)N[C@H](CCCCN)C(=O)NCCCCc1ccccc1)C(c1ccccc1)c1ccccc1)[C@@H](C)O (single isomer, unassigned) [compound 164] | – |
| 30 to 100 | 10 to 100 | CCCCCCCCCCCCCCCC(=O)NCC[N+](C)(C)CC(=O)NCCCC[C@H](NC(=O)[C@@H]1CSSC[C@H](NC(=O)[C@H](CCC(=O)O)NC(=O)CC(C)C)C(=O)N[C@@H](Cc2c[nH]cn2)C(=O)N[C@@H](C(c2ccccc2)c2ccccc2)C(=O)N1)C(=O)NCCCCc1ccccc1 [compound 195] | – |
| – | – | COC(=O)CC[C@H](NC(=O)CC(C)C)C(=O)N[C@H](C(=O)N[C@@H](Cc1c[nH]cn1)C(=O)N[C@H](C(=O)N1CCC[C@H]1C(=O)N1CCC[C@H]1C(=O)NCC(=O)N(C)[C@@H](CCCCNC(=O)COCCOCCNC(=O)COCCOCCNC(=O)[C@H](CN)NC(=O)CCCCCCCCCCCCCCCCC(=O)O)C(=O)N[C@H](CC(=O)N[C@H](CCCCN)C(N)=O)Cc1ccccc1)C(c1ccccc1)c1ccccc1)[C@@H](C)O [compound 46] | IC50 (ferroportin [1]; [5]): 1 to 30 nM; IC50 (ferroportin [2]; [6]): > 500 nM |
| 100 to 500 | 0.1 to 10 | CCCCCCCCCCCCCCCC(=O)NCC[N+](C)(C)CC(=O)NCCCCCCCCCCCC(=O)NCCCC[C@H](NC(=O)[C@@H]1CCCN1C(=O)[C@@H](NC(=O)[C@H](Cc1c[nH]cn1)NC(=O)[C@@H](NC(=O)[C@H](CCC(=O)O)NC(=O)CC(C)C)[C@@H](C)O)C(c1ccccc1)c1ccccc1)C(=O)NCCCCCc1ccccc1 [compound 86] | – |
| – | – | CCCCCCCCCCCCCCCC(=O)N[C@@H](CN)C(=O)NCCOCCOCC(=O)NCCOCCOCC(=O)NCCCC[C@H](NC(=O)[C@@H]1CCCN1C(=O)[C@@H](NC(=O)[C@H](Cc1c[nH]cn1)NC(=O)[C@@H](NC(=O)[C@H](CCC(=O)O)NC(=O)CC(C)C)[C@@H](C)O)C(c1ccccc1)c1ccccc1)C(=O)NCC(c1ccccc1)c1ccccc1 [compound 27] | IC50 (ferroportin [1]; [5]): 1 to 30 nM; IC50 (ferroportin [2]; [6]): 0.1 to 10 nM |
| 30 to 100 | 100 to 500 | CC(C)CC(=O)N[C@@H](CCC(=O)O)C(=O)N[C@H]1CSSC[C@@H](C(=O)N[C@H](C(=O)N(C)[C@@H](CCCCNC(=O)[C@H](CN)NC(=O)CCCc2ccc(I)cc2)C(=O)N[C@H](C(=O)N[C@H](CCCCN)C(N)=O)C(c2ccccc2)c2ccccc2)C2CCCCC2)NC(=O)[C@H](C(c2ccccc2)c2ccccc2)NC(=O)[C@H](Cc2c[nH]cn2)NC1=O [compound 64] | – |
| – | – | CC(C)CC(=O)N[C@@H](CCC(=O)O)C(=O)N[C@H](C(=O)N[C@@H](Cc1c[nH]cn1)C(=O)N[C@H](C(=O)N1CCC[C@H]1C(=O)N[C@H](CCCCN)C(=O)N(Cc1ccccc1)C(CCCCCCC(=O)O)C(=O)O)C(c1ccccc1)c1ccccc1)[C@@H](C)O (stereo partly drawn) [compound 148] | IC50 (ferroportin [1]): > 500 nM; IC50 (ferroportin [2]; IC50: T47D MSA (nM, Table 1D)): > 500 nM |
| 30 to 100 | 100 to 500 | CC(C)CC(=O)N[C@@H](CCC(=O)O)C(=O)N[C@H]1CSSC[C@@H](C(=O)N[C@@H](CCCCNC(=O)[C@H](CN)NC(=O)CCCc2ccc(I)cc2)C(=O)NCCCCc2ccccc2)NC(=O)[C@H](C(c2ccccc2)c2ccccc2)NC(=O)[C@H](Cc2c[nH]cn2)NC1=O [compound 172] | – |
| > 500 | 0.1 to 10 | CCCCCCCCCCCCCCCC(=O)NCC[N+](C)(C)CC(=O)NCCOCCOCC(=O)NCCOCCOCC(=O)NCCCC[C@H](NC(=O)[C@@H]1CCCN1C(=O)[C@@H](NC(=O)[C@H](Cc1c[nH]cn1)NC(=O)[C@@H](NC(=O)[C@H](CCC(=O)O)NC(=O)CC(C)C)[C@@H](C)O)C(c1ccccc1)c1ccccc1)C(=O)NCCCN1CCOCC1 [compound 106] | – |
| 1 to 30 | 10 to 100 | CCCCCCCCCCCCCCCC(=O)N[C@@H](CCC(=O)NCCOCCOCCOCCOCCC(=O)NCCCC[C@H](NC(=O)[C@@H]1CCCN1C(=O)[C@@H](NC(=O)[C@H](Cc1c[nH]cn1)NC(=O)[C@@H](NC(=O)[C@H](CCC(=O)O)NC(=O)CC(C)C)[C@@H](C)O)C(c1ccccc1)c1ccccc1)C(=O)NCCCCCc1ccccc1)C(=O)O [compound 114] | – |
| 30 to 100 | 10 to 100 | CC(C)CC(=O)N[C@@H](CCC(=O)O)C(=O)N[C@H](C(=O)N[C@@H](Cc1c[nH]cn1)C(=O)N[C@H](C(=O)N1CCC[C@H]1C(=O)N(C)[C@@H](CCCCNC(=O)C[N+](C)(C)CCNC(=O)C[N+](C)(C)CCNC(=O)CCCc1ccc(I)cc1)C(=O)NCCCCCc1ccccc1)C(c1ccccc1)c1ccccc1)[C@@H](C)O [compound 66] | – |
| 30 to 100 | 0.1 to 10 | CCCCCCCCCCCCCCCC(=O)NCC[N+](C)(C)CC(=O)NCC[N+](C)(C)CC(=O)NCCCC[C@@H](C(=O)NCCCCCc1ccccc1)N(C)C(=O)[C@@H]1CCCN1C(=O)[C@@H](NC(=O)[C@H](Cc1c[nH]cn1)NC(=O)[C@@H](NC(=O)[C@H](CCC(=O)OC)NC(=O)CC(C)C)[C@@H](C)O)C(c1ccccc1)c1ccccc1 [compound 68] | – |
| > 500 | > 500 | COC(=O)CCC(CCCC(C)C)C(=O)N1C[C@@H]2C[C@H]1C(=O)N[C@@H](Cc1c[nH]cn1)C(=O)N[C@@H](C(c1ccccc1)c1ccccc1)C(=O)N1C[C@@H](C[C@H]1C(=O)N(C)[C@@H](CCCC[N+](C)(C)C)C(=O)NCCCCc1ccccc1)SS2 (stereo partly drawn) [compound 171] | – |
| 1 to 30 | 0.1 to 10 | CCCCCCCCCCCCCCCC(=O)N[C@@H](CCC(=O)NCC[N+](C)(C)CC(=O)NCCOCCOCCOCCOCCC(=O)NCCCC[C@H](NC(=O)[C@@H]1CCCN1C(=O)[C@@H](NC(=O)[C@H](Cc1c[nH]cn1)NC(=O)[C@@H](NC(=O)[C@H](CCC(=O)O)NC(=O)CC(C)C)[C@@H](C)O)C(c1ccccc1)c1ccccc1)C(=O)NCCCCCc1ccccc1)C(=O)O [compound 88] | – |
| 30 to 100 | > 500 | CC(C)CC(=O)N[C@@H](CCC(=O)O)C(=O)N[C@H](C(=O)N[C@@H](Cc1c[nH]cn1)C(=O)N[C@H](C(=O)N1CCC[C@H]1C(=O)N[C@@H](CNC(=O)[C@H](CCCC[N+](C)(C)C)NC(=O)OCC1c2ccccc2-c2ccccc21)C(=O)NCCCCc1ccccc1)C(c1ccccc1)c1ccccc1)[C@@H](C)O [compound 158] | – |
